We go through one compound from US12486266B2, “Crystalline form of JAK inhibitor and application thereof” (Zhuhai United Laboratories CO., LTD., priority 2020, dated 2025).

Series [1] relates to collagen induced arthritis (CIA) in mice. The note with it: mouse, in vivo.
The test system of series [2] is adjuvant induced arthritis (AIA) rat model. The note with it: in vivo, po.

In the case of `O=C(Nc1nc2cccc(C3CCC4(CC3)CN(C(=O)[C@@H]3CC3(F)F)C4)n2n1)C1CC1`, the “effect on the body weight of mice” value in series [1] is on record as “little effect on the body weight”. Besides, the “tolerance of rats (body weight course)” value in series [2] is listed as “good tolerance”.
